# scFv variants of Ab-14 (light chain) against a SARS-CoV-2 spike peptide

From the AlphaSeq antibody data of Li et al. 2023 (doi:10.1038/s41467-023-39022-2), copy in the FLAb collection.

Antigen: PDVDLGDISGINAS, a 14-residue peptide of the SARS-CoV-2 spike HR2 region.

The variants keep the heavy chain, the linker and the frameworks of Ab-14 (scFv order VH, a (GGGGS)3 linker, VL).
VH: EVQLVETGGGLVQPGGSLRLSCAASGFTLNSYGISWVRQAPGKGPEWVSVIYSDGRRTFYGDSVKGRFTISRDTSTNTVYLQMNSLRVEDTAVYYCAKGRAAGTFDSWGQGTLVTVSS
VL: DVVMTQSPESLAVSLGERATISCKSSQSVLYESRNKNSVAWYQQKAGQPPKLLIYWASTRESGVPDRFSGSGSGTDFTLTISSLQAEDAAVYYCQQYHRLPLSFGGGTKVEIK

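The starting antibody came from a phage panning campaign against this peptide. These sequences belong to a second round, designed from the earlier measurements on random variants of the parent. Their group label is 14L_Ctrl (Ctrl: baseline library sampled from a position-specific scoring matrix, with some repeated check sequences). The assay is AlphaSeq: two haploid yeast populations carry antibody and antigen on their surface. Binding brings cells together so that they mate, and sequencing counts the barcode pairs among the diploids. The ratio of observed to expected reads was calibrated, replicate by replicate, on BCL2-family standards whose Kd was known from biolayer interferometry. The assay was run in six technical replicates.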

Positions count from residue 1 of the parent VL; V29T puts T in place of V. Affinities are written as log10 Kd with Kd in nM; a lower number is a better binder. "n.d." marks a missing value. The strain was present, yet no cells mated with the target were sequenced in that replicate, which points to weak or no binding. The parent sequence was in this pool as ten entries: three were never detected, three once, and four in most replicates, with averages from 0.34 to 2.37. The range of this assay differs from that of the first round, and the authors advise against merging the two. Background: pairings of all light chain designs with three empty control strains gave a value in 4% of cases (median 2.64, 5th percentile 1.59). Values in that range, when seen in few replicates, are hard to tell from nonspecific mating. For each scFv, signals with the empty controls are counted beside the result, with their mean in brackets. In the paper, a design with two or fewer of six values counts as a poor binder.

changes | log10 Kd, replicates | control signals
V29T W56Q T59K Q95V S103V | n.d. / n.d. / n.d. / n.d. / n.d. / 2.66 | 0/18
K24M S25F L30H Q96V H98A | n.d. / 2.69 / n.d. / n.d. / n.d. / n.d. | 0/18
V29C S38P W56N | 0.70 / 1.52 / 1.29 / 0.48 / 1.19 / 1.36 | 1/18 (2.49)
S25M L30G R34E R60N E61M | n.d. / 4.80 / n.d. / 3.15 / n.d. / n.d. | 4/18 (3.37)
S33C E61Y | n.d. / n.d. / n.d. / n.d. / 1.72 / n.d. | 0/18
L30D K36R W56N | n.d. / n.d. / n.d. / n.d. / n.d. / n.d. | 0/18
S26F V29K W56D | 0.37 / 0.31 / 0.46 / -0.02 / 0.19 / 0.11 | 3/18 (1.96)
Q27P Y31M K36M S62Q L100M | 1.61 / 1.51 / 1.24 / 1.09 / 1.44 / 1.35 | 2/18 (2.49)
S25C W56H Y97T | 2.31 / n.d. / n.d. / n.d. / n.d. / n.d. | 1/18 (2.55)
S58T E61L S62A | 2.32 / 2.50 / 2.31 / 2.48 / n.d. / 2.55 | 0/18
S26R R34C | n.d. / n.d. / n.d. / n.d. / n.d. / n.d. | 0/18
S33K R34T L102N | n.d. / n.d. / n.d. / n.d. / n.d. / n.d. | 0/18
E32S R34Q K36N T59L | 2.40 / 1.59 / 2.73 / 4.74 / 1.95 / 3.72 | 1/18 (2.82)
V29D Y31G Q95G | n.d. / 2.43 / n.d. / n.d. / n.d. / n.d. | 1/18 (3.49)
S25T L30M R99N | n.d. / 2.44 / 1.17 / n.d. / 1.88 / 2.06 | 1/18 (1.53)
L30E R34D W56A | 0.43 / 0.31 / 0.21 / 0.10 / 0.21 / 0.37 | 3/18 (2.73)
Q27G S33Y W56G T59H | n.d. / n.d. / n.d. / n.d. / n.d. / n.d. | 0/18
L30D K36E S62A Q96W | n.d. / n.d. / n.d. / n.d. / n.d. / n.d. | 0/18
S26V V29D S58H L100A | n.d. / n.d. / n.d. / n.d. / n.d. / n.d. | 0/18
W56R A57V Q96W | n.d. / n.d. / n.d. / n.d. / n.d. / n.d. | 0/18
S26D W56D R60N S62W | 0.68 / 0.89 / 0.74 / 0.79 / 0.40 / 0.83 | 2/18 (2.83)
S26M V29L T59E | 1.48 / 3.05 / 3.00 / 1.98 / 2.51 / 2.23 | 0/18
S25I V29G | 0.21 / 0.47 / 0.24 / 0.49 / 0.29 / 0.67 | 0/18
V29W L30D Y31G R34G | 1.95 / 1.83 / 1.37 / 1.62 / 1.39 / 2.60 | 1/18 (1.40)
V29G E32Y N35R W56Y E61A L100D S103C | 1.36 / 2.35 / n.d. / n.d. / 2.01 / n.d. | 1/18 (2.28)
V29S E32M W56A S103L | 0.61 / 0.28 / 0.13 / 0.28 / 0.45 / 0.23 | 1/18 (2.38)
S25T S28D N35P A57G S62P H98F | n.d. / 1.17 / n.d. / n.d. / 0.78 / n.d. | 0/18
S26G S28G Y31D N35A E61N | n.d. / 2.65 / 2.42 / n.d. / 2.08 / 4.74 | 1/18 (1.94)
Y31A S33Q R34L A57G R99T | 0.90 / 0.20 / 0.17 / 0.61 / 0.51 / 0.79 | 1/18 (2.58)
W56S E61S | 1.10 / 1.18 / 0.90 / 0.69 / 1.10 / 1.97 | 0/18
V29C P101G | n.d. / n.d. / n.d. / n.d. / n.d. / n.d. | 0/18
S25L R34E E61I Q96H | 2.28 / 1.43 / n.d. / 2.51 / 2.24 / 1.80 | 1/18 (1.98)
R34E W56Q E61V | 0.45 / 0.40 / 0.55 / -0.11 / 0.47 / 0.31 | 1/18 (2.60)
W56A S62N L102C | 1.28 / 1.31 / 1.13 / 0.92 / 0.36 / 0.63 | 1/18 (1.94)
A57G Q96D | 0.60 / 0.38 / -0.30 / 0.02 / 1.29 / 0.19 | 0/18
V29N W56N | -0.19 / -0.21 / -0.23 / -0.31 / -0.44 / -0.13 | 3/18 (2.33)
S25C Q27T V29N W56N E61I R99H | 0.47 / 0.36 / 0.30 / 0.27 / 0.13 / 0.48 | 1/18 (2.81)
S25D | n.d. / 1.82 / 1.80 / n.d. / 2.73 / 2.27 | 1/18 (1.51)
S28D L30E Y31E R34T W56D | 0.33 / 0.64 / 0.37 / 0.76 / 0.47 / 0.70 | 2/18 (2.42)
S25L Q95G L102F | 0.63 / 0.11 / 0.60 / 0.39 / -0.03 / 0.82 | 0/18
S25C W56N P101I | n.d. / n.d. / n.d. / n.d. / n.d. / n.d. | 0/18
W56F P101H | n.d. / n.d. / n.d. / n.d. / n.d. / n.d. | 2/18 (1.36)
S25F R34L S38N V39I W56H | 0.24 / 0.01 / 1.27 / 0.56 / 0.55 / 0.77 | 1/18 (2.59)
S28H L30D R34W W56G | 1.23 / 1.27 / 0.59 / 0.72 / 1.18 / 1.39 | 0/18
S28Q | n.d. / 2.03 / 1.69 / n.d. / n.d. / n.d. | 1/18 (2.23)
S28P T59E S62V | 1.87 / 2.02 / 1.64 / 1.43 / 1.64 / 1.69 | 1/18 (4.42)

Again, the first 7 entries without any signal:

changes	log10 Kd, replicates	control signals
L30D K36R W56N	n.d. / n.d. / n.d. / n.d. / n.d. / n.d.	0/18
S26R R34C	n.d. / n.d. / n.d. / n.d. / n.d. / n.d.	0/18
S33K R34T L102N	n.d. / n.d. / n.d. / n.d. / n.d. / n.d.	0/18
Q27G S33Y W56G T59H	n.d. / n.d. / n.d. / n.d. / n.d. / n.d.	0/18
L30D K36E S62A Q96W	n.d. / n.d. / n.d. / n.d. / n.d. / n.d.	0/18
S26V V29D S58H L100A	n.d. / n.d. / n.d. / n.d. / n.d. / n.d.	0/18
W56R A57V Q96W	n.d. / n.d. / n.d. / n.d. / n.d. / n.d.	0/18